Earlier results in US7390890B2, “Inhibitors of nucleoside metabolism” (Albert Einstein College of Medicine of Yeshiva University, priority 1997, dated 2008).

System: contact sensitivity ear swelling
Conditions: mice; cited from earlier work

Nc1nc2c(Cc3cccnc3)c[nH]c2c(=O)[nH]1 [9-(3-pyridylmethyl)-9-deazaguanine]
oral dose required for activity in contact sensitivity ear swelling assay: 50 mg/kg
